Earlier results as cited in article PMC9954444, “SERPIN-Derived Small Peptide (SP16) as a Potential Therapeutic Agent against HIV-Induced Inflammatory Molecules and Viral Replication in Cells of the Central Nervous System” (Cells, 2023).

Conditions: mouse model, following SP16 treatment; cited from earlier work
Source text: Our findings correlate with the anti-inflammatory effects of SP16 as previously published by Toldo et al..

Structure (SMILES): CCCC[C@H](NC(=O)[C@H](CC(C)C)NC(=O)[C@H](Cc1ccccc1)NC(=O)[C@@H](NC(=O)[C@H](Cc1ccccc1)NC(=O)[C@@H]1CCCN1C(=O)[C@H](CCCCN)NC(=O)[C@H](CC(N)=O)NC(=O)[C@H](Cc1ccccc1)NC(=O)[C@H](CCCCN)NC(=O)[C@@H](NC(C)=O)C(C)C)C(C)C)C(=O)N[C@H](C(=O)N[C@@H](CCC(=O)O)C(=O)N[C@@H](CCC(N)=O)C(=O)N[C@@H](CC(N)=O)C(=O)N[C@H](C(=O)N[C@@H](CCCCN)C(N)=O)[C@@H](C)O)[C@@H](C)CC [SP16]
- inflammation after acute myocardial infarction: decrease in inflammation
